The numbers were not newly measured in patent US7112654B2, “Ligand for vascular endothelial growth factor receptor” (Supratek Pharma Inc., priority 2001, dated 2006), which cites them from elsewhere.

The chains behind the UniProt entries cited, without tags or fusion partners. Residues count along the entry.
UniProt P35968, 20-1356: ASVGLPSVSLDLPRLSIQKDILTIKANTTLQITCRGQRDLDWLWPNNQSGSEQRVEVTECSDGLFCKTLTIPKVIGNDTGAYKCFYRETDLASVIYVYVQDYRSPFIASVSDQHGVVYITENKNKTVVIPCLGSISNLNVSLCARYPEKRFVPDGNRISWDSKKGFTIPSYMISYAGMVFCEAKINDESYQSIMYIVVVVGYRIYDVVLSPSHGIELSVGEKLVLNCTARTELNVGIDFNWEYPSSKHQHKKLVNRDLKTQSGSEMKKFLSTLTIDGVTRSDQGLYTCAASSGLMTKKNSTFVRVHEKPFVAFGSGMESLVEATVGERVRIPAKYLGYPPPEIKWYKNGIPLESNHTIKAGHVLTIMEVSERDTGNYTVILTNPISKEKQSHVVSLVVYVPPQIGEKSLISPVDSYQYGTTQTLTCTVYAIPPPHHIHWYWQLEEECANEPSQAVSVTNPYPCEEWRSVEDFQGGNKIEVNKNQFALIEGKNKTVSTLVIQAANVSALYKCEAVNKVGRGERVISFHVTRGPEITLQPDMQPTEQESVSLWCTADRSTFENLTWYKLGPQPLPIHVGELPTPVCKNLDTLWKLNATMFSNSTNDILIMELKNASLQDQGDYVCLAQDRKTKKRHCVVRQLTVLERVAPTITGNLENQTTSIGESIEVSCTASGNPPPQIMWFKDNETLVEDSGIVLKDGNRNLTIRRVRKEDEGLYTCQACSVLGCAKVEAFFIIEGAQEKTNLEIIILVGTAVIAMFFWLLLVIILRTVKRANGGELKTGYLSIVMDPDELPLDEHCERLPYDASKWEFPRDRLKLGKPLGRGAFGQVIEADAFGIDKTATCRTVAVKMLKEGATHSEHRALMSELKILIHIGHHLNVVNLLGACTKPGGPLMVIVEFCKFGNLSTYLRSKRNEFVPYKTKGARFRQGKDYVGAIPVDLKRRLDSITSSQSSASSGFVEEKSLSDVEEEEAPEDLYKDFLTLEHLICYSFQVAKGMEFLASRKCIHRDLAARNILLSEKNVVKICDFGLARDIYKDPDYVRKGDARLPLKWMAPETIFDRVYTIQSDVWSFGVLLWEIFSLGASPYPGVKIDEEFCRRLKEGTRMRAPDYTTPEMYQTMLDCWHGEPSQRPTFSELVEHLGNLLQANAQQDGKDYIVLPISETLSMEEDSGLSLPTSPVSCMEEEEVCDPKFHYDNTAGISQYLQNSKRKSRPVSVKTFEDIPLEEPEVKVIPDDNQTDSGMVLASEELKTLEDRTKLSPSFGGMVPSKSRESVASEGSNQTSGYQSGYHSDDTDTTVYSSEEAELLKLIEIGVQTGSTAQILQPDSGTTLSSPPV

The Kd is the free concentration of one partner at which half of the binding sites on the other are occupied at equilibrium, for simple one-to-one binding.

The data set concerns the target KDR receptor (Homo sapiens, UniProt P35968). The settings on record: cited from earlier work.

Take VEGF: the dissociation constant Kd was 75 to 125 pM.
